This series is described as follows: Biodistribution and dosimetry of 177Lu-DOTA-Trastuzumab. The format is in vivo, HER-2 positive breast carcinoma patients.

As to ^177Lu-DOTA-Trastuzumab, under “OLINDA EXM”, the “mean absorbed dose, WB” value is given as 0.2412 ± 0.0295 mGy/Mbq; the “mean absorbed dose, heart” value worked out at 1.4719 ± 0.602 mGy/Mbq; the “mean absorbed dose, kidneys” value stood at 1.4232 ± 0.364 mGy/Mbq; the “mean absorbed dose, liver” value is recorded as 1.0702 ± 0.731 mGy/Mbq. In addition, for the setting “OLINDA EXM”, the “mean absorbed dose, red marrow” value was determined as 0.1485 ± 0.0213 mGy/Mbq and the “mean absorbed dose, spleen” value is listed as 1.4114 ± 0.462 mGy/Mbq. Further, for the setting “ORIGIN software”, the “absorbed radiation dose for tumor” value turned out to be 1.78E+2; the “mean absorbed dose, heart” value stood at 1.8971 ± 0.713 mGy/Mbq; the “mean absorbed dose, kidneys” value is 0.7943 ± 0.235 mGy/Mbq; the “mean absorbed dose, liver” value is reported as 0.5741 ± 0.333 mGy/Mbq. The “mean absorbed dose, spleen” value (ORIGIN software) was found to be 0.8096 ± 0.224 mGy/Mbq. The “mean absorbed dose, WB” value (ORIGIN software, fifth of five values) was 0.09619 ± 0.0144 mGy/Mbq.

Values taken from publication PMC10798254 (Indian Journal of Nuclear Medicine : IJNM : The Official …, 2023).
